Values quoted from earlier work, collected in patent publication US4663343A, “Substituted naphthalenyloxy-1,2-diaminocyclohexyl amide compounds” (dated 1987).

Test system: kappa opioid receptor
Conditions: P. V. Vanvoigtlander et al., J. Pharmacol. Exp. Ther., 224: 7-12 (1983)

CN(C(=O)Cc1ccc(Cl)c(Cl)c1)[C@@H]1CCCC[C@H]1N1CCCC1 (relative stereo)
kappa opioid receptor agonist activity (in words): selective kappa opioid receptor agonist activity
